± gives the uncertainty stated by the source.
Test: xn = mol fraction of the nth substance listed
Conditions: 101.3 kPa

CCCCOCCCC + CCCO
Conditions	viscosity [mPa·s]
293.15 K, x1 = 0.0203	2.009 ± 0.03
293.15 K, x1 = 0.0485	1.89 ± 0.029
293.15 K, x1 = 0.0957	1.66 ± 0.025
293.15 K, x1 = 0.1451	1.49 ± 0.023
293.15 K, x1 = 0.2035	1.309 ± 0.02
293.15 K, x1 = 0.2427	1.24 ± 0.019
293.15 K, x1 = 0.2845	1.147 ± 0.018
293.15 K, x1 = 0.3218	1.085 ± 0.017
293.15 K, x1 = 0.3412	1.055 ± 0.017
293.15 K, x1 = 0.3848	0.988 ± 0.016
293.15 K, x1 = 0.4397	0.932 ± 0.015
293.15 K, x1 = 0.5319	0.852 ± 0.014
293.15 K, x1 = 0.6752	0.764 ± 0.013
293.15 K, x1 = 0.8209	0.709 ± 0.012
293.15 K, x1 = 0.8793	0.691 ± 0.012
298.15 K, x1 = 0.0203	1.8 ± 0.027
298.15 K, x1 = 0.0485	1.698 ± 0.026
298.15 K, x1 = 0.0957	1.498 ± 0.023
298.15 K, x1 = 0.1451	1.351 ± 0.021
298.15 K, x1 = 0.2035	1.194 ± 0.019
298.15 K, x1 = 0.2427	1.117 ± 0.018
298.15 K, x1 = 0.2845	1.049 ± 0.017
298.15 K, x1 = 0.3412	0.96 ± 0.016
298.15 K, x1 = 0.3848	0.912 ± 0.015
298.15 K, x1 = 0.4397	0.866 ± 0.014
298.15 K, x1 = 0.5319	0.796 ± 0.013
298.15 K, x1 = 0.6752	0.721 ± 0.012
298.15 K, x1 = 0.8209	0.667 ± 0.011
298.15 K, x1 = 0.8793	0.65 ± 0.011
298.15 K, x2 = 0.052	0.621 ± 0.025
298.15 K, x2 = 0.092	0.628 ± 0.026
298.15 K, x2 = 0.201	0.655 ± 0.027
298.15 K, x2 = 0.296	0.689 ± 0.028
298.15 K, x2 = 0.398	0.74 ± 0.03
298.15 K, x2 = 0.486	0.805 ± 0.033
298.15 K, x2 = 0.591	0.903 ± 0.037
298.15 K, x2 = 0.695	1.039 ± 0.042
298.15 K, x2 = 0.808	1.249 ± 0.051
298.15 K, x2 = 0.903	1.522 ± 0.062
298.15 K, x2 = 0.956	1.729 ± 0.071
303.15 K, x1 = 0.0203	1.628 ± 0.025
303.15 K, x1 = 0.0485	1.507 ± 0.023
303.15 K, x1 = 0.0957	1.335 ± 0.021
303.15 K, x1 = 0.1451	1.201 ± 0.019
303.15 K, x1 = 0.2035	1.082 ± 0.017
303.15 K, x1 = 0.2427	1.012 ± 0.016
303.15 K, x1 = 0.2845	0.953 ± 0.015
303.15 K, x1 = 0.3218	0.907 ± 0.015
303.15 K, x1 = 0.3412	0.885 ± 0.015
303.15 K, x1 = 0.3848	0.841 ± 0.014
303.15 K, x1 = 0.4397	0.793 ± 0.013
303.15 K, x1 = 0.5319	0.728 ± 0.012
303.15 K, x1 = 0.6752	0.662 ± 0.011
303.15 K, x1 = 0.8209	0.616 ± 0.011
303.15 K, x1 = 0.8793	0.602 ± 0.011
308.15 K, x1 = 0.0677	1.282 ± 0.02
308.15 K, x1 = 0.1252	1.129 ± 0.018
308.15 K, x1 = 0.1601	1.052 ± 0.017
308.15 K, x1 = 0.2091	0.963 ± 0.016
308.15 K, x1 = 0.2583	0.89 ± 0.015
308.15 K, x1 = 0.3281	0.812 ± 0.013
308.15 K, x1 = 0.3754	0.771 ± 0.013
308.15 K, x1 = 0.426	0.735 ± 0.012
308.15 K, x1 = 0.482	0.703 ± 0.012
308.15 K, x1 = 0.5396	0.675 ± 0.012
308.15 K, x1 = 0.6388	0.635 ± 0.011
308.15 K, x1 = 0.7528	0.604 ± 0.011
308.15 K, x1 = 0.8736	0.564 ± 0.01
308.15 K, x1 = 0.9591	0.555 ± 0.01

From the CheMixHub viscosity set
